From PubChem BioAssay AID651725 (National Center for Advancing Translational Sciences (NCATS), 2012)
The entries are a selection whose mix differs from that of the whole data set. Active and inactive are the calls of the source. Cut-off read from the data, not from the text of the source: active = activity change below about -65%; inconclusive = mostly about -30% to -63%; inactive = weaker than that.

Protein sequences, listed by entry. Tags and fused reporters are not part of them.
UniProt Q15475, whole entry: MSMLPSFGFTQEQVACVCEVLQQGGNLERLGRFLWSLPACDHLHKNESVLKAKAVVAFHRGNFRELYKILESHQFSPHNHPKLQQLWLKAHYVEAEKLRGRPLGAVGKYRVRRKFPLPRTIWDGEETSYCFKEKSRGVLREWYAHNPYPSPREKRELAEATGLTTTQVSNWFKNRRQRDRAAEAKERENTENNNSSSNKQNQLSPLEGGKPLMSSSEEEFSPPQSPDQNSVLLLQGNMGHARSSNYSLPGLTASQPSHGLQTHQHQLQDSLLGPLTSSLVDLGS

The molecules below were run against Homeobox protein SIX1 (Homo sapiens) + Protein phosphatase EYA2 (Homo sapiens) (UniProt Q15475+O00167) (assay: qHTS Assay for Inhibitors of the Six1/Eya2 Interaction). Details: AlphaScreen GST-Six1/His-Eya2 binding, biochemical; hits give low values.
Excerpt: Its expression is low or undetectable in normal adult breast tissue but the gene is over-expressed in 50% of primary breast tumors and 90% of metastatic lesions. […] Similar to Six1, Eya2 is also not expressed in most normal adult tissues, but is reexpressed in cancers. The Six1-Eya interaction is essential for proliferation during embryonic development, and both Six1 and Eya2 have been independently implicated in the same types of cancer. Because Six1 and Eya2 are embryonic genes with little expression in adult tissues, inhibitors of their expression/activity are likely to have limited side effects. Our goal is to identify inhibitors of the Six1/Eya interaction for potential cancer therapy. To this end, we have developed a homogenous AlphaScreen assay targeting the Six1/Eya interaction. We performed a large scale HTS of the Molecular Libraries Small Molecule Repository (MLSMR) to identify inhibitors of the Six1/Eya interaction as potential anti-cancer therapeutics. Compounds identified can also be used as chemical probes to better understand the biological functions of Six1 and Eya. […]
The first step of the 5 uL AlphaScreen assay is to dispense assay buffer (50 mM Tris, pH 8.0, 300 mM NaCl, 0.05% BSA, 0.02% Tween 20, 1 mM TCEP) into a Greiner 1536 white solid bottom microtiter plate (789175-F). […] The plate is read using a Perkin Elmer Envision using an AlphaScreen protocol.
% is set by controls: 0 for no effect and ±100 for the full control effect.

| Compound | activity change |
| --- | --- |
| CCC(=O)N(c1ccccc1)C1(COC)CCN(CCn2nnn(CC)c2=O)CC1 | inactive: 1.95% |
| CCC(=O)N(c1ccccc1)C1(COC)CCN(CCc2cccs2)CC1 | inactive: -1.47% |
